Test results as given in patent US20200016173A1 (CHINA MEDICAL UNIVERSITY, priority 2016, published 2020).

System: SC-M1 human GCa cell line
Assay: cytotoxic effect of CYP19A1 inhibitors on SC-M1 cells
Format: cell-based
Conditions: 48-hr culture, exemestane within 100 μM treatments

SMILES: N#Cc1ccc(C(c2ccc(C#N)cc2)n2cncn2)cc1 [letrozole]
- cytotoxic effect: did not produce obviously cytotoxic effect

SMILES: CC(C)(C#N)c1cc(Cn2cncn2)cc(C(C)(C)C#N)c1 [anastrazole]
- cytotoxic effect: did not produce obviously cytotoxic effect
